The values below are quoted from earlier work in patent US20100016365A1.

The conditions of data set [1]: Goromaru et al. 1984.
The conditions of data set [2]: considerable interpatient variability.

This is a selection: effects in other tests are not listed, and their absence says nothing. Bounds are passed on as bounds.

On to `CCC(=O)N(c1ccccc1)C1CCN(CCc2ccccc2)CC1`, for which, in data set [1], the “unchanged drug excreted in the urine” value is less than 10%.
As for `CCC(=O)N(c1ccccc1)C1(COC)CCN(CCc2cccs2)CC1`, the elimination half-life result in data set [2] is reported as “about 3 hours”.
Consider `CCC(=O)N(c1ccccc1)C1(COC)CCN(CCn2nnn(CC)c2=O)CC1`, for which, in data set [2], the elimination half-life entry was “about 1.5 hours”.
